According to US20130045299A1, “Natural Mold Inhibitor and Methods of Using Same” (priority 2011, published 2013):

Assay: pH of baked bread
Assay type: physicochemical
Conditions: Table 9; 0.33%

CCC(=O)[O-].CCC(=O)[O-].[Ca+2] [Calcium Propionate, calcium propionate]
pH Bread: 5.31
